Measured values reported in patent publication US20160051697A1, “NANODELIVERY DEVICE FOR THERAPEUTIC LOADING OF CIRCULATING ERYTHROCYTES” (published 2016).

Chains of the proteins cited; added tags and fusions are not shown. Residues count along the entry.
UniProt P06276, 29-602 limits assumed: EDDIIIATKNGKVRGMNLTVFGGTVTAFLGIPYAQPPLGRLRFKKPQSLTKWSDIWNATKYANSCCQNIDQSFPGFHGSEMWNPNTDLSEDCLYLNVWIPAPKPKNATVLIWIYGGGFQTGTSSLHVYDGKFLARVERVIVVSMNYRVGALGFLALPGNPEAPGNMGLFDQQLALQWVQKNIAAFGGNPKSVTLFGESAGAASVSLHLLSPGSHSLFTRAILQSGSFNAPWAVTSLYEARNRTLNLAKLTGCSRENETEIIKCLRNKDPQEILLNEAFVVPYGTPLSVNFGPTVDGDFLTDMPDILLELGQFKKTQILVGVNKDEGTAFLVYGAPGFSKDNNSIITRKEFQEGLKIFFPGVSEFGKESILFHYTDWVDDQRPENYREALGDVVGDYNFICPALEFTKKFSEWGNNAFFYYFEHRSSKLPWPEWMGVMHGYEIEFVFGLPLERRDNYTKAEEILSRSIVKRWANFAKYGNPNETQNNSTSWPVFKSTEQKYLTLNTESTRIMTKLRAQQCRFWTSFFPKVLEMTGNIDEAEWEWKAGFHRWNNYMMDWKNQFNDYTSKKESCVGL

What was measured:
[1] = Dialysis across a 300 kDa membrane; settings: dialyzed 8 hours in PBS containing 0.5 mg/ml BSA
[2] = biological target: BChE (Homo sapiens, UniProt P06276); assay: Interaction of paraoxon with free and nano-encapsulated butyrylcholinesterase; settings: varying paraoxon concentrations, 20 minutes at 37° C., butyrythiocholine 1 mM
[3] = cited from earlier work
[4] = high dose BChE administration; cited from earlier work
[5] = cited from earlier work; remark: listed apart in the source
[6] = cited from earlier work; remark: listed apart in the source
[7] = mice, im 13 mg/kg (about 0.3 mg)

Substance: butyrylcholinesterase
- passage across 300 kDa dialysis membrane [1]: passes across the membrane more readily than the low molecular weight polymer particles
- inhibition of BChE activity by paraoxon [2]: similarly inhibited in a concentration-dependent manner
- time blood BChE activity remained elevated ([3]; IV 30 mg/kg): 100 h
- time of peak enzyme levels ([3]; higher im dosages, up to 60 mg/kg): around 24 hours
- duration of substantial circulating BChE activity ([3]; im, highest dosage (60 mg/kg)): at least four days
- adverse effects (signs, serum chemistry, histopathology) [4]: No overt physiological or behavioral signs, changes in serum chemistry, or tissue histopathology
- share of peak levels still present at 70 hours [5, 7]: about 25%
- time of peak blood BChE activities [5, 7]: 10 to 12 h
- time at which levels were back to near baseline ([5]; mice, im or ip 0.1-3 mg): ≤ 120 h
- time of peak circulating BChE enzyme activity ([5]; mice, im or ip 0.1-3 mg): 12 to 24 h
- half-life ([5]; mouse, parenteral administration): 67 h
- time over which >90% is cleared from the circulation ([5]; parenteral administration): 200 h
- long-term stability of lyophilized enzyme [6]: at least 2 years
